## Measured affinities in a library of Ab-14 heavy chain variants

Reference: Li et al. 2023, doi:10.1038/s41467-023-39022-2. File: FLAb, binding data.

All variants were tested on one target, the spike HR2 peptide PDVDLGDISGINAS (SARS-CoV-2).

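The parent was found by panning a naive human phage display library on the peptide. These sequences belong to a second round, designed from the earlier measurements on random variants of the parent. Group labels follow the data file (Ctrl: baseline library sampled from a position-specific scoring matrix, with some repeated check sequences; Rand: our label for a block that the file lists under HC and that is probably the random mutants of the ten best first-round binders; En: ensemble of fine-tuned language models; GP: Gaussian process model; GPLM: also part of the Gaussian process libraries; HC: hill climbing; Gen: genetic algorithm; Gibbs: Gibbs sampling; a sequence that several methods proposed may carry one label only). Affinity was read by AlphaSeq, a pooled yeast mating assay with surface-displayed partners. After mating in shaken culture at 30 °C for 16 h, diploids were selected and their barcode pairs sequenced. The ratio of observed to expected reads was calibrated, replicate by replicate, on BCL2-family standards whose Kd was known from biolayer interferometry. Each pool was mated in six replicate cultures.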

Parent: Ab-14, a human scFv built as VH, a 15-residue (Gly4Ser)3 linker, VL. Only the CDRs of the heavy chain vary.
VH: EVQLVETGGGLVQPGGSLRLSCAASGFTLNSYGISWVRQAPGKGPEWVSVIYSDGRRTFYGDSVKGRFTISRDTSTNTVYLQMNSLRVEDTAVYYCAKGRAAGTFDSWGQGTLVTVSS
VL: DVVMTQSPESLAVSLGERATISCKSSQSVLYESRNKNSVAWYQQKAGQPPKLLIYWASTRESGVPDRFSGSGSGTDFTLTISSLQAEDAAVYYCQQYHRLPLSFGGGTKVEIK

Substitutions are numbered in sequence along the VH above, starting at 1 (not Kabat).
This list holds designs with at most six substitutions.
Values are apparent Kd, the geometric mean of the replicates that gave a signal; lower means stronger binding.
"nd" marks a missing value. The strain was present, yet no cells mated with the target were sequenced in any replicate, which points to weak or no binding.
Three control strains display no target. For all heavy chain designs, 1% of the pairings with them gave a signal, with a median of 120 nM and one signal in twenty below 7.0 nM, so weak values seen in few replicates may be background.
Values of this round are not directly comparable with the first-round values of the same sequences.
The authors' rule: three or more of the six replicates give a measured affinity, fewer mean a poor binder.

The variant T28D/S63K/A101T/S107D [GP_Gibbs] showed 2.0 nM (6 of 6 replicates).
The variant T28W/S31E/G61A/S107K [GP_Gibbs] showed 54 nM (3 of 6 replicates).
The variant T28D/S31E/S53A/G61T/R100E/A101V [En_HC] showed 210 pM (6 of 6 replicates).
The variant N30M/S31N/R56Q/F59Y/A101W [Ctrl] showed nd (0 of 6 replicates).
The variant S53A/R100D/A101N/G103S [Ctrl] showed 280 nM (1 of 6 replicates).
The variant N30D/G61I [GPLM_Gen] showed 47 nM (2 of 6 replicates).
The variant N30E/S31D/Y60M/D106N/S107V [Ctrl] showed 350 nM (2 of 6 replicates).
The variant G61D/R100T/A101T [GP_HC] showed 1.1 nM (6 of 6 replicates).
The variant T28S/S31A/F59Q/G61I [GPLM_HC] showed nd (0 of 6 replicates).
The variant T28E/S31E/G103V/S107T [GP_HC] showed 41 nM (1 of 6 replicates).
The variant S63E/G103I [Ctrl] showed nd (0 of 6 replicates).
The variant T28N/G61K/S63D/R100N [GP_Gibbs] showed 5.0 nM (6 of 6 replicates).
The variant S31R/G61S/A101L/S107T [GP_HC] showed 1.2 nM (6 of 6 replicates).
The variant F27C/T28S/S31E/G61T/A101F [GP_HC] showed 27 nM (1 of 6 replicates).
The variant T28S/S31D/A101T/S107F [GPLM_Gen] showed 9.9 nM (5 of 6 replicates).
The variant S31D/A101T/D106V [GPLM_Gen] showed 200 nM (4 of 6 replicates).
The variant G61D/R100L/A101M [GP_HC] showed nd (0 of 6 replicates).
The variant T28N/G61K/S63D/R100Q [GP_Gibbs] showed 18 nM (5 of 6 replicates).
The variant S31E/R56I [GPLM_HC] showed 2.7 nM (6 of 6 replicates).
The variant T28W/G61A/R100K/A101T/S107T [GP_Gibbs] showed 11 nM (6 of 6 replicates).
The variant T28D/G61S/S63Q/R100K/A101T [GP_Gen] showed 270 pM (6 of 6 replicates).
The variant G26M/T28D/G61A/R100Q/A101T [GP_Gen] showed 1.2 nM (6 of 6 replicates).
The variant G61Q/R100T/A101L [GP_HC] showed 8.8 nM (6 of 6 replicates).
The variant L29Y/S31E/V64R/G103V/S107Q [Rand] showed nd (0 of 6 replicates).
The variant G26E/S31Q/G61S/T104F/F105D [Rand] showed 6.1 nM (6 of 6 replicates).
The variant T28G/R100N/A101T [GP_Gibbs] showed 1.5 nM (6 of 6 replicates).
The variant T28A/G61T/R100Q/A101L [GP_HC] showed 16 nM (6 of 6 replicates).
The variant G61S/R100Q/A101T/S107L [GPLM_Gibbs] showed 5.6 nM (6 of 6 replicates).
The variant T28D/D106N/S107V [GPLM_HC] showed 34 nM (4 of 6 replicates).
The variant N30D/G61A/D106P [GP_HC] showed nd (0 of 6 replicates).
The variant F27K/N30E/G61A/S63D [GP_Gibbs] showed nd (0 of 6 replicates).
The variant G26E/T28N/A101N [Ctrl] showed 42 nM (1 of 6 replicates).
The variant S31E/A102R/G103F/T104C/S107V [Ctrl] showed nd (0 of 6 replicates).
The variant L29I/S31D/D106E [Ctrl] showed 230 nM (6 of 6 replicates).
The variant T28D/R100K/A101N/S107K [GP_Gibbs] showed 2.1 nM (6 of 6 replicates).
The variant A101Y [Ctrl] showed 100 nM (1 of 6 replicates).
The variant R100K/A101I [GPLM_Gen] showed 25 nM (1 of 6 replicates).
The variant N30R/S31Q/T58E/G61S [Ctrl] showed 75 nM (3 of 6 replicates).

Excerpt, the final 5 entries:

| changes | group | Kd | seen in |
|---|---|---|---|
| L29I/S31D/D106E | Ctrl | 230 nM | 6/6 |
| T28D/R100K/A101N/S107K | GP_Gibbs | 2.1 nM | 6/6 |
| A101Y | Ctrl | 100 nM | 1/6 |
| R100K/A101I | GPLM_Gen | 25 nM | 1/6 |
| N30R/S31Q/T58E/G61S | Ctrl | 75 nM | 3/6 |